An excerpt weighted towards active compounds, which were near 1.8% of everything screened.
SIRT5 block = SIRT5 desuccinylase inhibitors, primary screen, biochemical, fluorescence imaging, single point, set 5. NAD-dependent protein deacylase sirtuin-5, mitochondrial (Homo sapiens), Q9NXA8. Purified SirT5, succinyl-peptide AMC, trypsin-coupled fluorescence. inhibition, % at 15 µM. 330,000 tested, 1.1% active; in the data active = inhibition above about 15%; inconclusive = no clear call, values can overlap the other calls
E-selectin induc = E-selectin induction in HUVECs, primary screen, imaging, HUVEC, immunofluorescence imaging, single point; P16581; AID 686992, 2013; activation, % at 7.58 µM; normalized: neutral wells 0, TNF-alpha wells 100; 260,000 tested, 0.37% active;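 active = mean E-selectin-positive cell signal at least 10% of the positive control, reached in at least 60% of replicates, without over 20% cell loss; inconclusive = no rule given, readout overlaps actives, possibly toxicity-flagged; inactive = the rest, including those meeting only one limit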
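Read-out: % PE-positive cells | Test system: HUVEC | Doses: One compound dose added by pin transfer | Buffer or medium: EGM-2 over gelatin coat | Signal: Immunofluorescence imaging | Benchmarks: TNF-alpha, DMSO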
RAD52 anneal inh = RAD52 DNA annealing inhibitors, primary screen, biochemical, FRET, single point, set 2 | DNA repair protein RAD52 homolog (Homo sapiens), P43351 | recombinant RAD52 DNA annealing, FRET fluorescence | inhibition, % at 18.7 µM | 360,000 tested, 0.46% active;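 active = every replicate showing at least 50% inhibition; inconclusive = mean inhibition at least 50% but not in every replicate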
AF4-AF9 inh = inhibitors of AF4 peptide binding to AF9, primary screen, biochemical, AlphaScreen, biotin-AF4 peptide, FLAG-AF9, single point; Protein AF-9 (Homo sapiens), P42568; inhibition, % at 10 µM; 350,000 tested, 0.47% active; AID 651704, 2012;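 active = every replicate reaching a set inhibition limit, whatever the replicate mean, cut at about 25% in these data; inconclusive = mean inhibition reaches that limit but some replicates miss it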
UUG fidelity = alters start codon recognition fidelity in yeast. S. cerevisiae UUG-firefly luciferase reporter, luminescence/redox ratio. activity score, % at 18.7 µM. 0.13% of 350,000 active. AID 602363;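 active = replicate mean at a twofold rise or more, about +100% in these data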;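 also: firefly luciferase made from a UUG start codon reports start codon fidelity; reporter light over untreated wells divided by growth signal over untreated wells; some hits fall short of that in this replicate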
RAD54 inh = inhibitors of human RAD54 branch migration, primary screen, biochemical, fluorescence, single point; AID 602329, 2012; 360,000 tested, 0.14% active; inhibition, % at 10.4 µM; RAD54 Holliday junction branch migration, FAM/BHQ fluorescence;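 active = mean normalized replicate activity at least 40 and at least half of replicates scoring 40 or more; inconclusive = only one of the two criteria met; inactive = mean below 40 and under half of replicates reaching 40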;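 note: inhibitors cause a drop in the FAM fluorescence signal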
Hits are given with their value; – = inactive; ? = inconclusive; · = no result.

Protein sequences, listed by entry. Tags and fused reporters are not part of them.
DNA repair protein RAD52 homolog (Homo sapiens), P43351, UniProt P43351, whole entry, looked up: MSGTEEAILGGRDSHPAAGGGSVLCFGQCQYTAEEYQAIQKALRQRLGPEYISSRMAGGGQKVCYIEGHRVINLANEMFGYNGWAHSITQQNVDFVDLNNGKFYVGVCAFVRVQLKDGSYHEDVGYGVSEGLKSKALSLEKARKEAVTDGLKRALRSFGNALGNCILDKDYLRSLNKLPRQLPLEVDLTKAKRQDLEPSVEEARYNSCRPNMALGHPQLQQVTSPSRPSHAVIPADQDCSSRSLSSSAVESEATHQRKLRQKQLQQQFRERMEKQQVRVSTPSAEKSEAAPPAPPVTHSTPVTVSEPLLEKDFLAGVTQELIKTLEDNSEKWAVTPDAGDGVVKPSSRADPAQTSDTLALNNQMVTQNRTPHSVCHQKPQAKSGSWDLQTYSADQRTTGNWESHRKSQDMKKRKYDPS

SMILES | SIRT5 block | E-selectin induc | RAD52 anneal inh | AF4-AF9 inh | UUG fidelity | RAD54 inh
NC(=O)/C(=C/c1ccco1)C(N)=S | 17 | – | – | – | · | ·
CN1c2ccc(-c3ccc(F)cc3)cc2[C@H]2[C@H](CCN2C(=O)c2ccncc2)[C@@H]1CO | – | – | – | – | – | –
COc1ccc2c(c1OC)c(=O)n1c3ccc(OC(C)C(=O)NCCCN4CCOCC4)cc3c3ccnc2c31 (stereo unspecified) | · | · | · | · | – | 73
CC(Oc1ccc2c(c1)c1ccnc3c4ccccc4c(=O)n2c13)C(=O)NCCN1CCOCC1 (stereo unspecified) | · | · | · | · | – | 89
Cc1c(OC(C)C(=O)NCCCN2CCOCC2)ccc2c1oc(=O)c1ccccc12 (stereo unspecified) | – | · | – | – | – | –
CC(Oc1ccc2c3c(c(=O)oc2c1)CCCC3)C(=O)NCCN1CCOCC1 (stereo unspecified) | – | · | – | – | – | –
CO[C@@H]1CN(C)C(=O)c2ccc(NC(C)=O)cc2OC[C@H](C)N(S(=O)(=O)c2cn(C)cn2)C[C@H]1C | – | – | – | – | – | –
Cc1cc(NC(=O)CCC(=O)N(Cc2ccc(F)cc2)C(C(=O)NC2CCCC2)c2ccco2)no1 (stereo unspecified) | – | · | – | – | – | –
Cc1cc(NC(=O)CCC(=O)N(Cc2ccccc2)C(C(=O)NC2CCCC2)c2ccco2)no1 (stereo unspecified) | 78 | · | – | – | – | –
CC(=O)c1ccc(NC(=O)C2(c3ccccc3)CC2(Cl)Cl)cc1 (stereo unspecified) | – | · | – | 33 | · | ·
O=C(NCCc1ccccc1)C1(c2ccccc2)CC1(Cl)Cl (stereo unspecified) | · | – | · | · | – | –
C[C@@H]1CN([C@@H](C)CO)C(=O)c2cc(NS(=O)(=O)c3ccc(Cl)cc3)ccc2O[C@@H](C)CCCCO[C@@H]1CN(C)Cc1ccc(C(F)(F)F)cc1 | 18 | – | – | – | – | –
C[C@@H]1CCCCO[C@@H](CN(C)Cc2ccc(C(F)(F)F)cc2)[C@H](C)CN([C@@H](C)CO)C(=O)c2cc(NS(=O)(=O)c3ccc(Cl)cc3)ccc2O1 | 18 | – | – | – | – | –
C[C@@H]1CCCCO[C@H](CN(C)Cc2ccc(C(F)(F)F)cc2)[C@H](C)CN([C@H](C)CO)C(=O)c2cc(NS(=O)(=O)c3ccc(Cl)cc3)ccc2O1 | – | – | – | – | – | –
C[C@H]1CCCCO[C@@H](CN(C)Cc2ccc(C(F)(F)F)cc2)[C@@H](C)CN([C@@H](C)CO)C(=O)c2cc(NS(=O)(=O)c3ccc(Cl)cc3)ccc2O1 | 16 | – | – | – | – | –
C[C@@H]1CN([C@H](C)CO)C(=O)c2cc(NS(=O)(=O)c3ccc(Cl)cc3)ccc2O[C@@H](C)CCCCO[C@H]1CN(C)Cc1ccc(C(F)(F)F)cc1 | – | – | – | – | – | –
C[C@@H]1CCCCO[C@H](CN(C)Cc2ccc(C(F)(F)F)cc2)[C@@H](C)CN([C@H](C)CO)C(=O)c2cc(NS(=O)(=O)c3ccc(Cl)cc3)ccc2O1 | – | – | – | – | – | –
C[C@@H]1CCCCO[C@@H](CN(C)Cc2ccc(C(F)(F)F)cc2)[C@H](C)CN([C@H](C)CO)C(=O)c2cc(NS(=O)(=O)c3ccc(Cl)cc3)ccc2O1 | 16 | – | – | – | – | –
COc1ccc(NC(=O)Nc2ccc3c(c2)[C@@H]2C[C@@H](CC(=O)N4CCN(C)CC4)O[C@H](CO)[C@@H]2O3)cc1 | – | – | – | – | · | –
Cc1cc(C(=O)Nc2cccc3c2O[C@@H](CN(C)S(=O)(=O)c2ccc(Cl)cc2)[C@@H](C)CN([C@H](C)CO)C3=O)n(C)n1 | – | · | – | – | – | –
CCOc1ccc(NC(=O)COc2cccc3c2CCN(Cc2cccnc2)C3=O)cc1 | – | · | – | – | – | –
COc1ccc(NC(=O)COc2cccc3c2CCN(Cc2cccnc2)C3=O)cc1 | 17 | – | – | – | – | –
COc1ccc([Si](C)(C)[C@@H]2[C@@H](CCO)O[C@]3(C(=O)N(Cc4ccccc4)c4ccc(N5C(=O)c6cccc7cccc5c67)cc43)[C@H]2C)cc1 | – | · | – | – | – | –
COc1cc(Cl)c(CN2CCCC(CO)(Cc3ccccc3F)C2)cc1OC (stereo unspecified) | 101 | · | – | – | – | –
O=C(c1cc(C(=O)N2CCOCC2)c2nc3ccccc3n2c1)c1cc(Cl)cc(Cl)c1O | – | – | – | 27 | · | ·
SMILES | SIRT5 block | E-selectin induc | RAD52 anneal inh | AF4-AF9 inh | UUG fidelity | RAD54 inh
CCc1c(C)sc2nc3c(C(=O)N4CCOCC4)cc(C(=O)c4ccccc4O)cn3c(=O)c12 | – | · | – | – | – | –
CCn1c(SCC(=O)Nc2ccc(Cl)cc2)nc2nc3c(cc2c1=O)CCCC3 | · | · | · | · | – | –
CCn1c(SCC(=O)Nc2ccc(OC)cc2)nc2nc3c(cc2c1=O)CCCC3 | 16 | – | – | – | – | –
C[C@@H]1CN([C@@H](C)CO)C(=O)c2cc(NS(=O)(=O)c3ccccc3)ccc2O[C@@H](C)CCCCO[C@@H]1CN(C)S(=O)(=O)c1cn(C)cn1 | – | – | – | – | – | –
O=[N+]([O-])c1cccc(/C=C/c2ccccn2)c1 | 24 | · | – | – | – | –
COc1ccc2c(CC(=O)NNC(=O)c3ccc(C)cc3)coc2c1 | 21 | – | – | – | – | –
COc1ccc2c(CC(=O)NNC(=O)c3cccs3)coc2c1 | – | – | – | – | – | –
COc1ccc(S(=O)(=O)Nc2ccc3c(c2)[C@@H]2C[C@H](CC(=O)O)O[C@H](CO)[C@@H]2O3)cc1 | – | – | – | – | – | –
CCCOc1ccc(C(=O)OCCN(CC)CC)cc1N | – | ? | 95 | – | – | –
Cc1ccc(S(=O)(=O)Oc2ccc(/C=N/N=C3/NC(=O)C(CC(=O)O)S3)cc2)cc1 (stereo unspecified) | 28 | · | – | – | · | ·
CC(C)C#Cc1ccc2c(c1)O[C@@H](CN(C)CC1CC1)[C@@H](C)CN([C@@H](C)CO)S2(=O)=O | – | – | – | – | – | –
CC(C)n1c(SCc2ccccc2F)nc2c1c(=O)n(C)c(=O)n2C | · | · | – | – | – | –
COc1ccccc1CSc1nc2c(c(=O)n(C)c(=O)n2C)n1C | – | 48 | – | – | – | –
N#Cc1ccc(-c2ccc([C@@H]3[C@H]4CNCC(=O)N4[C@H]3CO)cc2)cc1 | – | – | – | – | · | ·
